Assay results reported in patent publication US20150346192A1 (Sanofi, published 2015).

Assays:
[1] = target: T1, ATP-binding cassette, sub-family E, member 1 (rat, UniProt D3ZD23 1-558); test: IP of RBL-2H3 lysate on nickel beads, MS/MS ProtScore; 1st value
Excerpt: (§1) The three Ab fragments, as well as the appropriate irrelevant Abs, were purified and immobilised on magnetic nickel beads thanks to their 6×His tag. They were used to immunoprecipitate protein lysates from RBL-2H3 cells stimulated or not beforehand via the FcεRI. After the immunoprecipitations, the beads were washed in low stringency conditions in order to preserve low affinity bindings.
(§2) After electrophoresis on acrylamide gel (SDS-PAGE), and staining with Coomassie blue, bands present when immunoprecipitated by Ab fragments 3H2-1 and 5H4 and whose intensity was either higher as compared to the irrelevant Ab, or who were absent with the irrelevant Ab, were cut. After digestion with trypsin, the bands were analysed by mass spectrometry MS/MS using the MALDI-TOF (matrix-assisted laser desorption/ionization time of flight) technique.
(§3) The Mass spectrometer which was used is composed of a laser which ionises previously digested peptides; an analyser which measures the mass/charge (m/z) ratios of the ionised peptides as a function of their flight time; and a detector which records the number of ions for each given m/z ratio. The obtained spectra of m/z ratios allow the identification of peptides and thus proteins present in the samples, by interrogating the Genebank rat database, as well as the mouse database for comparison (the mice Genebank data being more complete). […]

[2] = target: T1, ATP-binding cassette, sub-family E, …; test: IP of RBL-2H3 lysate on nickel beads, MS/MS ProtScore; 2nd value
Excerpt: as §1, §2, §3

Protscore IP [1]: 4
Protscore IP [2]: 4
B1: 5H4-VH (other)
VH: MAEVQLVESGGSLVKPGGSLRLSCAASGFTFSNYSMNWVRQAPGKGLEWISSISGSSRYIYYADFVKGRFTISRDNATNSLYLQMNSLRAEDTAVYYCVRDGGLREGFDCWGRGTLVTVSSAAAEQKLISEEDLNGAA
notes: Single human-derived VH domain (truncated scFv, VH only) on the 13R4 framework; produced in E. coli, immobilised on nickel beads; also called 5H4-VH fragment; intracellular antibody 5H4-VH; not shown: C-terminal Myc tag and 6xHis tag from vector pET23NN
